# According to patent US20260382730A1, “SOS1 PROTEIN DEGRADATION AGENT AND USE THEREOF” (published 2026):
# Chains of the proteins cited; added tags and fusions are not shown. Lines headed by an entry give the natural chain unless they say otherwise; changes in a name come on top.
# UniProt Q07889, whole entry: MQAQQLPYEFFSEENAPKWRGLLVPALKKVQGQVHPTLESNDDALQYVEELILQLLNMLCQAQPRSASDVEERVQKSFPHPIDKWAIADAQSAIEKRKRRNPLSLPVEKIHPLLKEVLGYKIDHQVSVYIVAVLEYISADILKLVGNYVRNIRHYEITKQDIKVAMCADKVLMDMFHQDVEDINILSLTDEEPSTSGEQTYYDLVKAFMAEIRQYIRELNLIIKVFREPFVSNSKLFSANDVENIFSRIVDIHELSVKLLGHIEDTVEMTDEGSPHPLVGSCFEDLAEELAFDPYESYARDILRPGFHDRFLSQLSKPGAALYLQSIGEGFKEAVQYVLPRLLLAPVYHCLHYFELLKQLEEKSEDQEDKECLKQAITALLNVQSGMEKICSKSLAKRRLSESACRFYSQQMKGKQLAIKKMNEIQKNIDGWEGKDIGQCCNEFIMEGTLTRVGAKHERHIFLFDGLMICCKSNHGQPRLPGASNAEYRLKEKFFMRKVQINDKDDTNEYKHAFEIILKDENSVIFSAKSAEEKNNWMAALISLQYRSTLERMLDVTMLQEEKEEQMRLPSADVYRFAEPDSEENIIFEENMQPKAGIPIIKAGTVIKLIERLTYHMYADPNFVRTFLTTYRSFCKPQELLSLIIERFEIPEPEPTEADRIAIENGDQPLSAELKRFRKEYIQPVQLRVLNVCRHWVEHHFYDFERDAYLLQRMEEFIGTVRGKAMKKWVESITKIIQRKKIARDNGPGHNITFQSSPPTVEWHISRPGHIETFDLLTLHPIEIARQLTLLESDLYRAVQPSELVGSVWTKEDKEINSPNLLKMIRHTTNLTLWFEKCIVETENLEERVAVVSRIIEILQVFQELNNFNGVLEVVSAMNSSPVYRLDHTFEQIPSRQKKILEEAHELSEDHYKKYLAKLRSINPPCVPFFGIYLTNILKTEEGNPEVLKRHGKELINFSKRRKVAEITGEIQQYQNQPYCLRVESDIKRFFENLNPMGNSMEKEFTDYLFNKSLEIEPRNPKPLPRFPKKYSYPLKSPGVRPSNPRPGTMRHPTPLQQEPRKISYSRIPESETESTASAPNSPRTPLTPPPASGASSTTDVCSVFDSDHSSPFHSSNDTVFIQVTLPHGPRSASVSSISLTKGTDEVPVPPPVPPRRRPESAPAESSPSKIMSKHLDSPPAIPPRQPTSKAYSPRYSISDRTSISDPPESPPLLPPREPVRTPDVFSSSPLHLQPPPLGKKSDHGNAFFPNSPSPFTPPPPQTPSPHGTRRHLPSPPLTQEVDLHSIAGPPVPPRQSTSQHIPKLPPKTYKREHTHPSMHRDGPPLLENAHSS
# Legend:
# SOS1 protein = SOS1 protein (Homo sapiens, UniProt Q07889); assay: SOS1 degradation test (Western blot) in NCI-H358 cells; settings: maximum SOS1 degradation, NCI-H358 (KRAS G12C) cells, 24 h, 37 °C
# Method: Test Example 2: SOS1 Degradation Test
# The degradation of SOS1 by the compound was investigated on KRAS G12C mutant human non-small cell lung cancer cells NCI-H358 (ATCC or Chinese Academy of Sciences stem cell bank), KRAS G12D mutant human lung cancer cells A-427, KRAS G12V mutant human colorectal adenocarcinoma cells SW-620 and KRAS G13D mutant human colorectal adenocarcinoma epithelial cells DLD-1 (ATCC). Specific methods were as follows:
# 0.95 mL of cells was paved in each well of the 24-well cell culture plate to make the cell density reach 5×10^5 cells/well; the cell plates were placed in a 5% CO2 incubator and culture at 37 °C overnight. Then 50 μL of a diluted compound solution was added to the corresponding wells paved with cells, so that the final concentration of the compound was in the range of 0.03-3000 nM. The final concentration of DMSO is 0.25%. The administered cell plates were cultured in a 5% CO2 incubator at 37 °C for 24 h. After being removed from the 24 wells, the cell culture solution was washed twice with 1×PBS. 180 μL of an RIPA (strong) lysing buffer (Beyotime, P0013B) was added to NCI-H358 cells attached to the bottom of the cell culture plate and supplemented with 1 mM benzyl sulfonyl fluoride, a protease inhibitor mixture (Beyotime, P1008) and a protease phosphatase inhibitor mixture (Beyont, P1045) for lysis. After standing on ice for 30 min, the protein lysis buffer in each well was transferred to a 1.5 mL centrifuge tube and centrifuged at 15000 g and 4 °C for 20 min. The centrifuged cell lysate supernatant was cryopreserved at −80 °C for testing and used to test the degradation level of the SOS1 protein by a WB method. The total protein concentration in the cell lysis supernatant was determined using a BCA Protein Assay Kit (Tiangen, PA115-02).
# The concentration of total protein in the cell lysate was determined by BCA, adjusted to 0.5 μg/μL with PBS and 5×SDS-PAGE protein loading buffer (Beyotime, P0015L), placed in a 100 °C water bath for 15 min, then placed in an ice bath on ice for 5 min, centrifuged at 14000 g and 4 °C for 1 min, mixed well as a loading sample of WB. Protein electrophoresis was performed with a precast gel (Kaigene, KGMG010W15), with a loading volume of 10 μL (total protein 5 μg). Constant voltage electrophoresis was carried out at 120 V for 55 min after Tris-MOPS-SDS electrophoresis solution (Adamas, P1598253). After electrophoresis, the protein on the gel strip was transferred to PVDF membrane at constant current 250 mA for 65 min. After transmembrane transfer, the membrane was incubated at room temperature for 30 min in 1×QuickBlock blocking buffer (Beyotime, P0235). After blocking, the PVDF membranes were incubated with an SOS1 primary antibody (Abcam, ab140621) overnight at 4 °C and washed with TBST buffer (2.4 g Tris, 8.8 g NaCl, 1.5 mL Tween 20, adjusted to pH 7.4, diluted to 1 L) for 30 min (10 min/time). The secondary antibody (Abcam, ab205718) was incubated at room temperature for 2 h, the membrane was washed with TBST buffer for 30 min (10 min/time), and finally incubated with Clarity Western ECL Substrate (BIO-RAD, 170-5061) for 5 min to develop luminescence. Chromogenesis and protein mapping were performed by chemiluminescence imaging system (Qixiang, ChemiScope 6200 Touch). The protein chromatogram was analyzed for gray value by Qinxiang chemiluminescence analysis software. The following formula is used: gray level correction value=(target protein gray level value/corresponding internal reference gray level value)×103 to calculate the gray level correction value of each sample. Then the degradation rate was calculated by comparing with the gray level correction value of the control group. Further, the DC50 and Dmax values of the compound were obtained by non-linear curve fitting with logarithmic concentration versus inhibition ratio through GraphPad Prism 8.
# KRAS-G12C/SOS1 = KRAS-G12C/SOS1 (Homo sapiens, UniProt Q07889); assay: KRAS-G12C/SOS1 binding assay (HTRF, competitive inhibition); settings: read-out: KRAS G12C:SOS1 IC50, 10 μM GTP, 0.5% DMSO, 3 h under ice
# Description: Test Example 1: KRAS-G12C/SOS1 Binding Assay
# The following method was used to determine the extent of inhibition of a KRAS-G12C/SOS1 binding by the preferred compound of the present invention under in vitro conditions. This method uses the KRAS-G12C/SOS1 Binding Assay Kit (Cisbio, 63ADK000CB16PEG) to determine the competitive inhibition of the KRAS-G12C/SOS1 binding by a homogeneous time-resolved fluorescence technique (HTRF) for the preferred compound.
# The experimental procedure was as follows (refer to the package insert of the kit for a detailed method): first the compound in the present invention was dissolved in DMSO at a concentration of 20 mM, and diluted with a buffer in the kit by isogradient dilution so that the final concentration of the test compound in the reaction system ranged from 10000 nM to 0.04 nM, and the final concentration of DMSO was 0.5%. 2 μL of the compound was incubated with 4 μL 1×Tag1-SOS1, 4 μL 1×Tag2-KRAS-G12C (containing 10 μM guanosine triphosphate, GTP) for 15 min at 25 °C, then 5 μL 1×Anti-Tag1-Tb3+ and 5 μL 1×Anti-Tag2-XL665 were added into the reaction system for incubation for 3 h under ice. After the incubation, the fluorescence intensity of each well at an excitation wavelength of 337 nm was measured in an HTRF mode on a microplate reader EnVision (PerkinElmer, 2105) and the fluorescence intensity of each well at emission wavelengths of 620 nm and 665 nm was read. The Raio value was calculated using a Formula Ratio=(665 nm/620 nm)×104. The inhibition rate of the compound at each concentration was calculated by comparing with the fluorescence intensity ratio of the control group, and then the IC50 value of the compound was obtained by nonlinear curve fitting with logarithmic concentration-inhibition rate using GraphPad Prism 8, as shown in Table 1.
SMILES,NCI-H358 (G12C) Dmax (SOS1 protein),IC50 (KRAS-G12C/SOS1)
Cc1c(C#N)cccc1[C@@H](C)Nc1nnc(C)c2cnc(N3CCN(C(=O)C4CCN(CCCC5CCN(C(=O)c6ccc(Cl)c(N7CCC(=O)NC7=O)c6)CC5)CC4)CC3)cc12,C (30≤Dmax (%)<50),
Cc1c(C#N)cccc1[C@@H](C)Nc1nnc(C)c2cnc([C@H]3CC[C@@H](C(=O)N4CCC(CCOCC5CCN(C(=O)c6ccc(Cl)c(N7CCC(=O)NC7=O)c6)CC5)CC4)CC3)cc12,D (Dmax(%)<30),100 to 1000 nM
CCc1ccc(C(=O)N2CCC3(CCC(CN4CCC(C(=O)N5CCN(c6cc7c(N[C@H](C)c8cccc(C#N)c8C)nnc(C)c7cn6)CC5)CC4)CC3)CC2)cc1N1CCC(=O)NC1=O,A (80≤Dmax(%)≤100),
Cc1c(C(F)F)cccc1[C@@H](C)Nc1nnc(C)c2cnc([C@H]3CC[C@H](C(=O)N4CCN(CC5CCC6(CC5)CCN(C(=O)c5ccc(Cl)c(N7CCC(=O)NC7=O)c5)CC6)CC4)CC3)cc12,B (50≤Dmax(%)<80),50 to 100 nM
Cc1c(C#N)cccc1[C@@H](C)Nc1nnc(C)c2cnc(N3CC4CC(C3)N4C(=O)C3CCN(CC4CCC5(CC4)CCN(C(=O)c4ccc(Cl)c(N6CCC(=O)NC6=O)c4)CC5)CC3)cc12,B (50≤Dmax(%)<80),
Cc1ccc(C(=O)N2CCC3(CCC(CN4CCC(C(=O)N5CCN(c6cc7c(N[C@H](C)c8cccc(C#N)c8C)nnc(C)c7cn6)CC5)CC4)CC3)CC2)cc1N1CCC(=O)NC1=O,A (80≤Dmax(%)≤100),< 15 nM
Cc1c(C#N)cccc1[C@@H](C)Nc1nnc(C)c2cnc(N3CCC(C(=O)N4CCC(CCOCC5CCN(C(=O)c6ccc(Cl)c(N7CCC(=O)NC7=O)c6)CC5)CC4)CC3)cc12,B (50≤Dmax(%)<80),50 to 100 nM
Cc1c(C(F)F)cccc1[C@@H](C)Nc1nnc(C)c2cnc(N3CCN(C(=O)[C@H]4CC[C@H](CN5CCC6(CC5)CCN(C(=O)c5ccc(Cl)c(N7CCC(=O)NC7=O)c5)CC6)CC4)CC3)cc12,A (80≤Dmax(%)≤100),15 to 30 nM
Cc1c(C#N)cccc1[C@@H](C)Nc1nnc(C)c2cnc(N3CCN(C(=O)N4CCC(CCOCC5CCN(C(=O)c6ccc(Cl)c(N7CCC(=O)NC7=O)c6)CC5)CC4)CC3)cc12,A (80≤Dmax(%)≤100),
Cc1c(C#N)cccc1[C@@H](C)Nc1nnc(C)c2cnc([C@H]3CC[C@H](C(=O)N4CCC(CCOCC5CCN(C(=O)c6ccc(Cl)c(N7CCC(=O)NC7=O)c6)CC5)CC4)CC3)cc12,C (30≤Dmax (%)<50),100 to 1000 nM
Cc1c(C#N)cccc1[C@@H](C)Nc1nnc(C)c2cnc(N3CCN(C(=O)C4CCN(CC5CCC6(CC5)CCN(C(=O)c5ccc(Br)c(N7CCC(=O)NC7=O)c5)CC6)CC4)CC3)cc12,A (80≤Dmax(%)≤100),
Cc1c(C#N)cccc1[C@@H](C)Nc1nnc(C)c2cnc(N3CCN(C(=O)C4CCN(CC5CCC6(CC5)CCN(C(=O)c5ccc(F)c(N7CCC(=O)NC7=O)c5)CC6)CC4)CC3)cc12,A (80≤Dmax(%)≤100),
Cc1nnc(N[C@H](C)c2cc(-c3c(Cl)cccc3CN(C)C)cs2)c2cc([C@H]3CC[C@H](C(=O)N4CCC(CCOCC5CCN(C(=O)c6ccc(Cl)c(N7CCC(=O)NC7=O)c6)CC5)CC4)CC3)ncc12,A (80≤Dmax(%)≤100),15 to 30 nM
Cc1c(C#N)cccc1[C@@H](C)Nc1nnc(C)c2cnc(N3CCC(C(=O)C4CCN(CC5CCC6(CC5)CCN(C(=O)c5ccc(Cl)c(N7CCC(=O)NC7=O)c5)CC6)CC4)CC3)cc12,A (80≤Dmax(%)≤100),
Cc1c(C#N)cccc1[C@@H](C)Nc1nnc(C)c2cnc(N3CCN(C(=O)C4CCN(CC5CCC6(CC5)CCN(C(=O)c5ccc(Cl)c(N7CCC(=O)NC7=O)c5)CC6)CC4)CC3)cc12,A (80≤Dmax(%)≤100),15 to 30 nM
Cc1c(C#N)cccc1[C@@H](C)Nc1nnc(C)c2cnc(N3CCC(C(=O)C4CCN(CCCCC5CCN(C(=O)c6ccc(Cl)c(N7CCC(=O)NC7=O)c6)CC5)CC4)CC3)cc12,B (50≤Dmax(%)<80),
Cc1c(C#N)cccc1[C@@H](C)Nc1nnc(C)c2cnc(N3CC4CCC(C3)N4C(=O)C3CCN(CC4CCC5(CC4)CCN(C(=O)c4ccc(Cl)c(N6CCC(=O)NC6=O)c4)CC5)CC3)cc12,A (80≤Dmax(%)≤100),
Cc1ccc(C(=O)N2CCC3(CCC(CN4CCC(C(=O)C5CCN(c6cc7c(N[C@H](C)c8cccc9c8CCS9(=O)=O)nnc(C)c7cn6)CC5)CC4)CC3)CC2)cc1N1CCC(=O)NC1=O,A (80≤Dmax(%)≤100),
COc1ccc(C(=O)N2CCC3(CCC(CN4CCC(C(=O)N5CCN(c6cc7c(N[C@H](C)c8cc(N)cc(C(F)(F)F)c8)nnc(C)c7cn6)CC5)CC4)CC3)CC2)cc1N1CCC(=O)NC1=O,A (80≤Dmax(%)≤100),
Cc1c([C@@H](C)Nc2nnc(C)c3cnc(N4CCN(C(=O)C5CCN(CC6CCC7(CC6)CCN(C(=O)c6ccc(Cl)c(N8CCC(=O)NC8=O)c6)CC7)CC5)CC4)cc23)cccc1C(F)(F)F,A (80≤Dmax(%)≤100),
Cc1c(C#N)cccc1[C@@H](C)Nc1nnc(C)c2cnc(N3CC4CC3CN4C(=O)C3CCN(CC4CCC5(CC4)CCN(C(=O)c4ccc(Cl)c(N6CCC(=O)NC6=O)c4)CC5)CC3)cc12 (some centres unmarked),D (Dmax(%)<30),
Cc1ccc(C(=O)N2CCC3(CCC(CN4CCC(C(=O)N5CCN(c6cc7c(N[C@H](C)c8cccc9c8CCS9(=O)=O)nnc(C)c7cn6)CC5)CC4)CC3)CC2)cc1N1CCC(=O)NC1=O,A (80≤Dmax(%)≤100),
Cc1nnc(N[C@H](C)c2cccc3c2CCS3(=O)=O)c2cc(N3CCN(C(=O)C4CCN(CC5CCC6(CC5)CCN(C(=O)c5ccc(Cl)c(N7CCC(=O)NC7=O)c5)CC6)CC4)CC3)ncc12,A (80≤Dmax(%)≤100),
Cc1c(C#N)cccc1[C@@H](C)Nc1nnc(C)c2cnc(N3CCN(C(=O)C4CCN(CC5CCC6(CC5)CCN(C(=O)c5ccc7c(c5)C(=O)N(C5CCC(=O)NC5=O)C7)CC6)CC4)CC3)cc12 (some centres unmarked),A (80≤Dmax(%)≤100),
